Laboratory results taken from patent US9345691B2, “Beta-lactam compounds for enhancing T cell-mediated immune responses” (STEM CELL MEDICINE LTD., priority 2011, dated 2016).

Tests used:
[1] = tested on: encephalitogenic BP10 T-cell line; assay: Adoptive EAE by BP10 line stimulated in vitro with test substance; format: in vivo, rat; details: BP10 line stimulated 3 days with 5 mg/ml in stimulation medium
Source text: The ability of a compound to enhance T cell activity may be determined, for example, using an in vivo assay testing the effect of a given compound on the severity of adoptive (passive) EAE, namely, EAE which is induced by the injection of activated encephalitogenic T cell line to the model animal. In order to test a compound, the encephalitogenic T cells are activated in the presence of the compound prior to injection. An exemplary procedure is described in the Examples section hereinbelow. Compounds whose incubation with the encephalitogenic T cells prior to injection results in an increased disease severity compared to a disease induced by T cells that were not incubated with the test compound, may be suitable for use according to embodiments of the present invention.
Antigen-specific T-cell lines were established from lymph node cells that had been stimulated with myelin basic protein (MBP; 10 μg/ml) for 3 days in stimulation medium as described below. Following stimulation, the T-cell blasts were isolated on Lympho-prep (Nycomed Pharma, Oslo, Norway) and seeded in propagation medium. Propagation medium was identical to stimulation medium without autologous serum, but supplemented with fetal calf serum 10% and T-cell growth factors from the supernatant of Con A stimulated spleen cells 10% (Mor et al. (1990) J Clin Invest, 85, 1594-1598). Animals were injected intra-peritoneally with 10^7 MBP-stimulated T cells, following 6-8 cycles of in vitro stimulations. It is known that MBP-reactive lines undergo a reduction in pathogenicity after 6 or more in vitro stimulations. In some experiments the BP10 line was stimulated with phorbol myristate acetate (PMA; 50 ng/ml) and ionomycin (500 ng/ml) for 3 days in stimulation medium, without antigen-presenting cells. […]
Treatment with cefuroxime in vivo could affect many different host agents involved in EAE or AA as well as influencing the rats' bacterial flora. […] The activated T cells were then washed to remove the antibiotic, the T cells were injected intra-peritoneally into naïve recipient rats (10^7 per rat), and EAE was scored. […]

human CD4 T cells = assay: Uptake of penicillin-modified albumin by T cells; format: cell-based
Procedure: To test whether penicillin-modified albumin can enter T cells, human serum albumin was incubated with penicillin, and then dialysed extensively. The resulting penicillin-modified-albumin was incubated with purified human CD4 T cells for 3 hours, and the cells were lysed and tested by western blot with monoclonal Pen 9 antibody. T cells were harvested after 1, 2, or 3 hrs. Cytoplasmic (“Cyto”) and nuclear (“Nucl”) fractions were run on SDS transferred to nitrocellulose and tested with Pen 9 antibody. […] Cytoplasmic and nuclear penicillin-labeled-albumin was seen after 1 hr, and peaked at 3 hr.

| Substance | severity of adoptive EAE (pathogenicity of BP10 line) [1] | severity of adoptive EAE (pathogenicity of BP10 line) ([1]; listed as Penicillin-modified albumin) | nuclear entry upon T cell activation (human CD4 T cells; T cell activation for 1 hr with PMA and Ionomycin) | time to detection in the nuclei (human CD4 T cells; purified human CD4 T cells, Pen 9 western blot of nuclear fraction) | time of peak of cytoplasmic and nuclear penicillin-labeled-albumin (human CD4 T cells; purified human CD4 T cells, harvested after 1, 2 or 3 hrs) |
| --- | --- | --- | --- | --- | --- |
| unmodified human albumin: human albumin not incubated with penicillin, control protein | no significant effect |  |  |  |  |
| penicillin-modified albumin: human serum albumin incubated with penicillin, then dialysed extensively | enhanced the pathogenicity of the T cells | augments the pathogenicity of BP10 line | augmented | ≤ 1 h | 3 h |
